pIC50: −log10 of the molar value. Read-outs that look alike come from different tables or passages of the source.
Biological target: Stat3 (Homo sapiens, UniProt P40763)
Test: EMSA of inhibition of Stat3 dimerization and DNA binding by phosphopeptides
Type: biochemical
Procedure: To find a lead compound for inhibitor development, a series of phospho-hexapeptides derived from known receptor docking sites for Stat3 were synthesized and assayed for their ability to inhibit Stat3 dimerization and DNA binding using electrophoretic mobility shift assays (EMSA) (Ren et al., 2003). […] SAR experiments were conducted systematically replacing each amino acid. The goal was to find non-peptidic groups that would be stable to phosphatases and proteases, and that would be more hydrophobic to allow greater bioavailability. […] The small peptidomimetics were assayed for their ability to bind to the SH2 domain of Stat3 using fluoresence polarization.
Nuclear extract was extracted as previously described (Andrews and Faller, 1991). Equal amount of nuclear extract protein was then incubated with ^32P labeled high-affinity c-sis-inducible element (hSIE; 5′-[…]-3′ , SEQ ID NO:25) (Santa Cruz). The reactions were performed in a total volume of 24 μl in buffer consisting of 10 mM HEPES (pH 7.8), 50 mM KCl, 1 mM EDTA, 5 mM MgCl2, 10% glycerol, 5 mM dithiothreitol, 1 mg of bovine serum albumin per ml, 0.5 mM phenyl-methylsulfonylflouride, and 1 mM Na3VO4 with 1 μg of poly (dI-dC) and 0.3 ng of ^32P-labeled hSIE. […] The screen was then scanned and the bands showing Stat3-DNA binding were quantified using the Storm System (Molecular Dynamics).

The chains behind the UniProt entries cited, without tags or fusion partners.
UniProt P40763, whole entry, species assumed: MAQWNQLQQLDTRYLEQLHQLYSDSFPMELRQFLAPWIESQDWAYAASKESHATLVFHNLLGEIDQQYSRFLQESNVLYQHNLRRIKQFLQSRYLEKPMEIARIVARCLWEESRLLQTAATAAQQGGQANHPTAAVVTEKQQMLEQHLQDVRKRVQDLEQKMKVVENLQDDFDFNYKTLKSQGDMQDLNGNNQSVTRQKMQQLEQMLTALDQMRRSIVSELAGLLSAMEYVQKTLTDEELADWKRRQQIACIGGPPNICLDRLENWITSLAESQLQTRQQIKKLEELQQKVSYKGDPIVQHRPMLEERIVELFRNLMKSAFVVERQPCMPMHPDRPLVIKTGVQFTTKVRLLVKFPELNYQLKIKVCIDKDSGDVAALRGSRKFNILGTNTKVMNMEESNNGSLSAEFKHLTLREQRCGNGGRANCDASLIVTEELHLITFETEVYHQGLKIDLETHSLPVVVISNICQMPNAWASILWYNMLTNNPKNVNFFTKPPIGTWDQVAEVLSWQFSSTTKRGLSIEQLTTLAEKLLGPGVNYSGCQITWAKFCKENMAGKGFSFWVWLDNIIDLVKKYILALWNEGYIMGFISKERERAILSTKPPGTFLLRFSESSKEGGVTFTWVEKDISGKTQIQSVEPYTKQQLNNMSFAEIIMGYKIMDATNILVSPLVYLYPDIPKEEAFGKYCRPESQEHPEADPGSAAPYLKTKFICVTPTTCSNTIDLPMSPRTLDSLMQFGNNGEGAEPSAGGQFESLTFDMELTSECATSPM

Row | SMILES | pIC50 (EMSA, averages of two determinations, read-out: IC50 (inhibition of Stat3 dimerization and DNA binding)) | pIC50
1 | CC[C@H](C)[C@H](NC(=O)[C@H](Cc1ccc(OP(=O)(O)O)cc1)NC(C)=O)C(=O)N[C@@H](CC(N)=O)C(=O)N[C@@H](CCC(N)=O)C(=O)N[C@@H](CO)C(=O)N[C@H](C(N)=O)C(C)C [Peptide 3, Y(p)INQSV] | 4.52 | 
2 | CC(=O)N[C@@H](Cc1ccc(OP(=O)(O)O)cc1)C(=O)N[C@@H](Cc1cnc[nH]1)C(=O)N[C@@H](CC(N)=O)C(=O)N[C@@H](CCC(N)=O)C(=O)N1CCC[C@H]1C(=O)N[C@@H](CC(C)C)C(N)=O [Peptide 4, Y(p)HNQPL] |  | 3.82

Source: patent publication US20070010428A1, “Inhibitors of signal transduction and activator of transcription 3” (priority 2004, published 2007)
